For series [1], the system named is Stimulator of interferon genes protein (Homo sapiens), Q86WV6 [UNDEFINED MUTATION]. The conditions noted are these: dose 50.0 µM, time 45.0 min.
Series [2] concerns the target T1, Stimulator of interferon genes protein (Homo sapiens, UniProt Q86WV6).
Series [3] concerns the target T1, Stimulator of interferon genes protein. Conditions: dose 50.0 µM, time 45.0 min; call rule not given here.
The test system of series [4] is Stimulator of interferon genes protein (Homo sapiens), Q86WV6 [G230A,R293Q]. The conditions noted are these: dose 50.0 µM, time 45.0 min.
Series [5] has as its system Stimulator of interferon genes protein (Homo sapiens), Q86WV6 [R293Q]. The conditions noted are these: dose 50.0 µM, time 45.0 min.
For series [6], the target named is T2, Stimulator of interferon genes protein (Mus musculus) (UniProt Q3TBT3).
T2 sequence (whole entry): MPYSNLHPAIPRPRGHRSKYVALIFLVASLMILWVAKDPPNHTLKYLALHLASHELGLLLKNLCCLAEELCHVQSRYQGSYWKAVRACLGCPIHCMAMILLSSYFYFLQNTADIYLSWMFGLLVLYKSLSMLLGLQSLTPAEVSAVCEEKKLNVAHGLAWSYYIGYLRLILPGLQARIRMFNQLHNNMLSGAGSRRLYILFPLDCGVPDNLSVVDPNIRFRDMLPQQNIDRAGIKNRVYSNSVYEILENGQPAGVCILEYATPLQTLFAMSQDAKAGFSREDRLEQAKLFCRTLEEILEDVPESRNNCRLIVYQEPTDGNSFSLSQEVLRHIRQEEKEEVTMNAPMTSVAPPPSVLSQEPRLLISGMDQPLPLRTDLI
The conditions noted are these: dose 50.0 µM, time 45.0 min.

Protein sequences, listed by entry. Tags and fused reporters are not part of them.
UniProt Q86WV6, whole entry, looked up, stated change not applied: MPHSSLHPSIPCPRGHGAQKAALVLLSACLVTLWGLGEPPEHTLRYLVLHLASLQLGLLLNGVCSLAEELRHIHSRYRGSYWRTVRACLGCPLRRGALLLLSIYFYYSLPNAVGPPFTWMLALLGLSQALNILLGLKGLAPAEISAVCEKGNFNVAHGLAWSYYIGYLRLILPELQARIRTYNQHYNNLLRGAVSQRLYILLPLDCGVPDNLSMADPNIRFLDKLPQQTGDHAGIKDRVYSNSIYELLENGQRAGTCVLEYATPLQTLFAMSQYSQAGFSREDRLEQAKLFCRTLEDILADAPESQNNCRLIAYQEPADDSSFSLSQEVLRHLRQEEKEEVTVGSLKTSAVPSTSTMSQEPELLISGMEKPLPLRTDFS
UniProt Q86WV6, whole entry G230A/R293Q: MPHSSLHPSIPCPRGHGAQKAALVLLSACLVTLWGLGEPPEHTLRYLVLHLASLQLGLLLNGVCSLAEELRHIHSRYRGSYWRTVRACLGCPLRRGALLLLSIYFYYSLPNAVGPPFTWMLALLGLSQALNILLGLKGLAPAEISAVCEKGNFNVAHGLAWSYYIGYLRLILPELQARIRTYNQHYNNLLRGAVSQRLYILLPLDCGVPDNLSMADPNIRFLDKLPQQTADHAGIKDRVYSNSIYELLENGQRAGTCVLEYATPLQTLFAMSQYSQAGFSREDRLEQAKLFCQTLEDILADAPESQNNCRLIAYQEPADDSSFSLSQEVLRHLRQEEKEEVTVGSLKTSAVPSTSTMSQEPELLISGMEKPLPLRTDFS
UniProt Q86WV6, whole entry R293Q: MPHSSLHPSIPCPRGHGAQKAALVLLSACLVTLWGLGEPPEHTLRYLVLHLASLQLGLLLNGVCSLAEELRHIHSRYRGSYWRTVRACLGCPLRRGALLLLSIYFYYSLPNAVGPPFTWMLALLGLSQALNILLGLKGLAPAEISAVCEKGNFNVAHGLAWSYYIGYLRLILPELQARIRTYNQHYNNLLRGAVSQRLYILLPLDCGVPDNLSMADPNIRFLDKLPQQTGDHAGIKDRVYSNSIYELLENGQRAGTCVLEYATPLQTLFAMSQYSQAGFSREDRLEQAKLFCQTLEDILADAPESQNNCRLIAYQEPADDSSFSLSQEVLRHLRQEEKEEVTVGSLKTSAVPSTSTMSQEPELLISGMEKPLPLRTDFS

Series [7] concerns Stimulator of interferon genes protein (Homo sapiens), Q86WV6 [UNDEFINED MUTATION]. The conditions noted are these: filed as agonist, dose 200.0 µM.
Series [8] has the same test system. The conditions noted are these: filed as agonist, dose 200.0 µM. This is another data set of the same source.
The test system is the same in series [9]. The conditions noted are these: filed as agonist, dose 200.0 µM. The source holds these as a separate data set.
Series [10] can be described thus: Clearance in female C57BL/6 mouse at 10 mg/kg, iv measured up to 24 hrs by LC-MS/MS analysis. The conditions noted are these: in vivo.
Series [11] deals with B16-F10. Conditions: Mus musculus, dose 5-10 mg/kg, route iv, time 12.0 day.
A short description of series [12]: in vivo. Conditions: female, C57BL/6, mouse, iv, 10 mg/kg.
Series [13] in a line: in vivo. Conditions: female, C57BL/6, mouse, iv, 10 mg/kg. The source holds these as a separate data set.
A short description of series [14]: in vivo. Conditions: female, C57BL/6, mouse, iv, 10 mg/kg. This is another data set of the same source.
Series [15] in a line: in vivo. Conditions: female, C57BL/6, mouse, iv, 10 mg/kg. The source holds these as a separate data set.
For series [16], the system named is B16-F10. Put plainly: animal or person. The conditions noted are these: Mus musculus, B16-F10, read-out: TGI.
Series [17] has as its system B16-F10. Put plainly: animal or person. Conditions: Mus musculus, B16-F10, read-out: TGI. The source holds these as a separate data set.

Consider 23 compounds from ChEMBL document CHEMBL6177999, “Discovery of 3-(Fluoro-imidazolyl)pyridazine Derivatives as Potent STING Agonists with Antitumor Activity” (J Med Chem, 2025).

As to `CCc1cc(C(=O)O)c(NC(=O)c2ccc(-n3cnc(F)c3)nn2)cc1F`, the ΔTm in series [1] worked out at 3 °C.

On to `C#Cc1cc(NC(=O)c2ccc(-n3cnc(C)c3)nn2)c(C(=O)O)cc1F`, for which the shift in melting temperature (ΔTm) in series [1] amounted to 8 °C.

Take `COc1cc(C(=O)O)c(NC(=O)c2ccc(-n3cnc(F)c3)nn2)cc1Br`: the ΔTm in series [1] amounted to 13 °C.

For `C=C(C)c1cc(NC(=O)c2ccc(-n3cnc(F)c3)nn2)c(C(=O)O)cc1F`, in series [1], the thermal shift (ΔTm) came out at 0.5 °C.

`C#Cc1cc(NC(=O)c2ccc(-n3cnc(Br)c3)nn2)c(C(=O)O)cc1F`: in series [1], the ΔTm was determined as 4 °C.

On to `O=C(Nc1cc(F)c(F)cc1C(=O)O)c1ccc(-n2cnc(F)c2)nn1`, for which the ΔTm in [1] was 5.5 °C.

In the case of `C#Cc1cc(NC(=O)c2ccc(-n3cnc(F)c3)nn2)c(C(=O)O)cc1Br`, the shift in melting temperature (ΔTm) in series [1] was found to be 8.5 °C.

As for `Cc1cc(NC(=O)c2ccc(-n3cnc(F)c3)nn2)c(C(=O)O)cc1F`, the ΔTm in [1] is 4.5 °C.

With `C=Cc1cc(NC(=O)c2ccc(-n3cnc(F)c3)nn2)c(C(=O)O)cc1F`, in series [1], the ΔTm stood at 8 °C.

With `CCc1cc(NC(=O)c2ccc(-n3cnc(F)c3)nn2)c(C(=O)O)cc1F`, the ΔTm in series [1] was found to be 1.5 °C.

In the case of `C#Cc1cc(NC(=O)c2ccc(-n3cnc(C(F)(F)F)c3)nn2)c(C(=O)O)cc1F`, the thermal shift (ΔTm) in [1] stood at 10 °C.

Turning to `C=CCc1cc(NC(=O)c2ccc(-n3cnc(F)c3)nn2)c(C(=O)O)cc1F`, the ΔTm in series [1] worked out at 1.5 °C.

`O=C(Nc1cc(Br)c(F)cc1C(=O)O)c1ccc(-n2cnc(F)c2)nn1` came in with a Kd in series [2] of 279 nM. The ΔTm amounted to 12.5 °C in [1]; 11.5 °C in series [3]; 29.5 °C in [4]; 13.5 °C in [5]; 7.5 °C in series [6]. The compound also registered a deltaG in series [7] of -8.94 kcal/mol. Also, in series [8], the deltaH was -4.18 kcal/mol. In series [9], this compound displayed a -TdeltaS of -4.76 kcal/mol.

On to `CC#Cc1cc(NC(=O)c2ccc(-n3cnc(F)c3)nn2)c(C(=O)O)cc1F`, for which the ΔTm in [1] was determined as 8.5 °C.

As for `C#Cc1cc(NC(=O)c2ccc(-n3cnc(F)c3)nn2)c(C(=O)[O-])cc1F.[Li+]`, the clearance at 24 h in series [10] stood at 11.2 mL/min/kg. In the series with B16-F10 [11], the inhibition result is listed as “Active; Compound Exceeded The Efficacy Of Sr-# Treatment Group”. The compound further showed a half-life at 24 h in “in vivo [12]” of 7.65 h. This compound also showed an AUC(0-t) at 24 h in “in vivo [13]” of 14100 ng·h/mL. In “in vivo [14]”, this compound registered an AUC(0-inf) at 24 h of 14900 ng·h/mL. Besides, in the series “in vivo [15]”, the Vd at 24 h was 3.5 L/kg. For the same compound, the inhibition in vivo at 5 mg/kg with B16-F10 [16] came to 51.2%. In addition, the inhibition in vivo at 10 mg/kg in the series with B16-F10 [17] amounted to 74.5%.

Regarding `O=C(Nc1cc(Br)c(OC2CC2)cc1C(=O)O)c1ccc(-n2cnc(F)c2)nn1`, in series [1], the ΔTm is 4 °C.

`CCOc1cc(C(=O)O)c(NC(=O)c2ccc(-n3cnc(F)c3)nn2)cc1Br`: the thermal shift (ΔTm) in [1] amounted to 6.5 °C.

Turning to `O=C(Nc1cc(C#CC2CC2)c(F)cc1C(=O)O)c1ccc(-n2cnc(F)c2)nn1`, the thermal shift (ΔTm) in series [1] amounted to 1 °C.

Take `C#Cc1cc(NC(=O)c2ccc(-n3cnc(Cl)c3)nn2)c(C(=O)O)cc1F`: the shift in melting temperature (ΔTm) in [1] came out at 9 °C.

For the compound `C#Cc1cc(NC(=O)c2ccc(-n3ccnc3)nn2)c(C(=O)O)cc1F`, the ΔTm in series [1] was 15.5 °C.

In turn, `O=C(Nc1cc(Cl)c(F)cc1C(=O)O)c1ccc(-n2cnc(F)c2)nn1` returned a Kd in series [2] of 216 nM. Besides, the ΔTm turned out to be 11 °C in series [1]; 11 °C in series [3]; 24 °C in series [4]; 12.5 °C in series [5]; 9 °C in [6]. The same compound had a deltaG in series [7] of -9.09 kcal/mol. Besides, the deltaH in series [8] is -3.84 kcal/mol. For the same compound, the -TdeltaS in series [9] is -5.26 kcal/mol.

As to `O=C(Nc1cc(C2CC2)c(F)cc1C(=O)O)c1ccc(-n2cnc(F)c2)nn1`, the ΔTm in [1] was 2 °C.

Consider `O=C(Nc1cc(F)c(F)cc1C(=O)O)c1ccc(-n2ccnc2)nn1`, for which the results for the thermal shift (ΔTm) in series [3], in series [5] and in series [6] were 7 °C, 8 °C and 7.5 °C, respectively. The compound further had a deltaH in series [8] of 2.1 kcal/mol. Besides, in series [9], the -TdeltaS is -10.7 kcal/mol.

Usually ΔTm stands for the shift of the melting midpoint relative to a reference. As a reminder, the Kd is the free concentration of one partner at which half of the binding sites on the other are occupied at equilibrium, for simple one-to-one binding. Low readings indicate higher affinity, high ones lower affinity. For orientation: clearance means the rate of elimination divided by the concentration. In general, half-life refers to how long it takes for the measured level to halve. What is called AUC(0-t) is the area under the concentration-time curve up to a stated or last time point. Low values mean less exposure, high ones more exposure. A word on the AUC(0-inf): it is the area under the concentration-time curve extrapolated to infinity. High values mean more exposure, low ones less exposure. One may read the Vd as the apparent volume that relates the amount in the body to the concentration in plasma or blood. A higher Vd goes with wide distribution into tissue.
